Results: ChEMBL document CHEMBL1240329, “Identification and mechanistic characterization of low-molecular-weight inhibitors for HuR” (Nat Chem Biol, 2007)

Tests used:
Assay type in all cases: functional
Monocyte [1] = assay: Inhibition of IL1-beta gene expression in LPS/INF-gamma-stimulated human primary monocytes by RT-PCR analysis
Monocyte [2] = assay: Inhibition of COX-2 gene expression in LPS/INF-gamma-stimulated human primary monocytes by RT-PCR analysis
Monocyte [3] = assay: Inhibition of IL-6 gene expression in LPS/INF-gamma-stimulated human primary monocytes by RT-PCR analysis

Measured: inhibition

Cc1occ2c1C(=O)c1c(O)ccc(O)c1C2
active: Monocyte [1] Dose-dependent effect | Monocyte [2] Dose-dependent effect | Monocyte [3] Dose-dependent effect
